From BindingDB's records for doi:10.1016/j.bmcl.2019.02.028 (Indiana University School of Medicine, 2019) come the findings set out here.

The target of this assay is GroEL/GroES.

pIC50: −log10 of the molar value.

On to `CC1=CCC(C(=O)/N=C2\CC=C(S(=O)(=O)O)c3cc(S(=O)(=O)O)cc(S(=O)(=O)O)c32)=C/C1=N/C(=O)C1=CC=C/C(=N\C(=O)/N=C2\C=CC=C(C(=O)/N=C3/CC(C(=O)/N=C4\CC=C(S(=O)(=O)O)c5cc(S(=O)(=O)O)cc(S(=O)(=O)O)c54)=CC=C3C)C2)C1`, for which the pIC50 (in general, the negative decadic logarithm of the IC50, by convention in mol/L) is 4.80.
